The values below come from ChEMBL document CHEMBL1132729.

The target of test [1] is T1, Lipoprotein lipase (Bos taurus) (UniProt P11151).
T1 sequence (whole entry): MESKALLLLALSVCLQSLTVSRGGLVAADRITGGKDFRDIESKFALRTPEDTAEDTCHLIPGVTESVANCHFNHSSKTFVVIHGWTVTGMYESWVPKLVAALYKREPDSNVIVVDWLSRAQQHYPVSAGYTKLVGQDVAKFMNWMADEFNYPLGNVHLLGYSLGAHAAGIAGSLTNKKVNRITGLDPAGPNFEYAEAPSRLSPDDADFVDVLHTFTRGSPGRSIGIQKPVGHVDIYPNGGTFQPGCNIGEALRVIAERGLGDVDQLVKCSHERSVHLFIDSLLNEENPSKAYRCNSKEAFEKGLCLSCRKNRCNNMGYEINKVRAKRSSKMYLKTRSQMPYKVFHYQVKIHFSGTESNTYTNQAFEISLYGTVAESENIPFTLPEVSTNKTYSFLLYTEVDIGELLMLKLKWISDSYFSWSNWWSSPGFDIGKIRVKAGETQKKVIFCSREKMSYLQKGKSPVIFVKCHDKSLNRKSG
Kind of test: Percent inhibition of compound against Lipoprotein lipase(LPL) at 3h was evaluated. Particulars: concentration not given here.

The target of test [2] is T1, Lipoprotein lipase (Bos taurus). Kind of test: Percent inhibition of compound against Lipoprotein lipase(LPL) at 10 uM was evaluated.

In the case of `CCCCCCS(=O)(=O)F`, the inhibition (as a rule, the drop in the measured response relative to a control, in per cent) came out at 60% in test [1] and 50% in test [2].
